The values that follow come from ChEMBL document CHEMBL4665844, “HDAC-Bax Multiple Ligands Enhance Bax-Dependent Apoptosis in HeLa Cells” (J Med Chem, 2020).

By UniProt entry, the sequences of proteins in these tests, tags left out.
UniProt Q07812, whole entry: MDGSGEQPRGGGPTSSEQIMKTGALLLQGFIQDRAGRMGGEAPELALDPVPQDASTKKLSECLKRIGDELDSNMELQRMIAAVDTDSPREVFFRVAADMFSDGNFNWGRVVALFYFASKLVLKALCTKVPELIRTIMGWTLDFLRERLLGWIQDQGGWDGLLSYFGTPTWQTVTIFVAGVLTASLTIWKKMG

As a reminder, the IC50 is the point on the concentration scale where inhibition reaches its midpoint. Low readings indicate greater potency, high ones weaker potency.

This assay concerns the target Apoptosis regulator BAX (Homo sapiens, UniProt Q07812). The assay is described as follows: Activation of BAX (unknown origin).

For the compound `O=C1/C(=N\Nc2nccs2)C(c2ccccc2)=NN1c1nc(-c2ccccc2)cs1`, inhibition was half-maximal at 250 nM (IC50).
